Values of other authors, collected in patent publication US20170022147A1, “FUMARATE COMPOUNDS, PHARMACEUTICAL COMPOSITIONS THEREOF, AND METHODS OF USE” (priority 2015, published 2017).

Conditions: ALS patients

Nc1nc2ccc(OC(F)(F)F)cc2s1 [riluzole]
extension of survival: about three
